In patent US7919460B2, “Method for prophylaxis of reflex sympathetic dystrophy after stroke” (Asahi Kasei Pharma Corporation, priority 2006, dated 2011):

Tested on: patients with hemiplegia attributed to cerebrovascular disease (stroke), onset of RSD (shoulder-hand syndrome)
Parameters: species or system humans
Conditions: in vivo
Source text: Test subjects were 33 patients with hemiplegia attributed to cerebrovascular disease (stroke) at Brunnstrom stage III or lower in either the upper limb or a finger on admission. Patients already developing RSD (shoulder-hand syndrome) on admission and patients with pain in the shoulder joint or swollen paralyzed limbs were excluded from the test. To 12 of these 33 test subjects, 20 units of elcatonin (Elcitonin Injection 20S; Asahi-Kasei Pharma; hereinafter, referred to as EL) were intramuscularly administered once a week immediately after admission (EL administration group). On the other hand, 21 test subjects were classified into a rehabilitation alone group (control group) and compared with the EL administration group. Physical therapy and therapeutic exercise, occupational therapy, and the management of the paralyzed limbs were performed thoroughly in all the cases. […] EL administration was initiated 11 to 59 days after an attack of stroke (25.8 days on average) and continued until 5 months after the attack of stroke. The same observation period was applied to the control group. […]
Activities of daily living (ADL) were evaluated on the basis of the Barthel Index (BI) and the range of motion (ROM) of shoulder joint. […]

1-butyric acid-7-(L-2-aminobutyric acid)-26-L-aspartic acid-27-L-valine-29-L-alanine-calcitonin [elcatonin]
Side effects during the test period: no significant or serious side effect was observed
